Measured values published in patent EP0588622B1, “Bleach composition” (UNILEVER PLC, priority 1992, dated 1994).

Assays:
[1] = Dye damage of dyed cloths stirred in peroxyacid solution (Examples II and IV), reflectance at 640 nm; details: for % dye damage: peroxyacid solution 0.000525 moles/l plus EDTA, 22-24°C, 30 minutes, blue disperse dyed nylon
[2] = Dye damage in tergotometer wash with detergent base at pH 6 to 10 (Example III); details: peroxyacid 9.2x10^-4 mole/l, detergent base 4 g/l, 40°C, 30 minutes
[3] = pKa determination by sodium hydroxide titration of peroxyacid solution; details: Table II
[4] = Stain bleaching, visual assessment of stained cloths after tergotometer wash (Example V); details: score 1 smallest, 4 greatest cleaning benefit, peroxyacid 9.2x10^-4 mol l^-1, 40°C, 30 minutes

O=C(CC1CC2CCC1C2)OO (centres unmarked)
% dye damage [1]: 8.6% | % DYE DAMAGE ([2]; pH 6): 41.1% | % DYE DAMAGE ([2]; pH 7): 41.7% | % DYE DAMAGE ([2]; pH 8): 30.7% | % DYE DAMAGE ([2]; pH 9): 9.3% | % DYE DAMAGE ([2]; pH 10): 4.8%

O=C(CCCCCCCCCCC(=O)OO)OO
% DYE DAMAGE ([1]; method of Example II, Initial Active oxygen = 2,5x10^-4 g atoms/l, dissolved at ca. pH 10, lowered to ca. pH 4, filtered): 30.6 a) %

O=C(OO)c1ccccc1
% dye damage [1]: 26.0% | pKa [3]: 7.78 | Ranking ([4]; Washes at pH 9): 1.3 | Ranking ([4]; Washes pH 6): 3
